Experimental data taken from US10829453B2, “Antagonists of the kappa opioid receptor” (University of Kansas, priority 2014, dated 2020).

Tested on: C57BL/6 mice
Experiment: Locomotor activity in open field, alone and against U50,488
Assay type: in vivo
Conditions: 1 hour, FIG. 2

## CN(C(=O)Cc1ccc(Cl)c(Cl)c1)[C@@H]1CCCC[C@H]1N1CCCC1
  suppression of locomotor (ambulatory) activity compared to vehicle: does
